The values below come from PubChem BioAssay AID2445 (The Scripps Research Institute Molecular Screening Center, 2010).

Protein sequences, listed by entry. Tags and fused reporters are not part of them.
UniProt P30559, whole entry: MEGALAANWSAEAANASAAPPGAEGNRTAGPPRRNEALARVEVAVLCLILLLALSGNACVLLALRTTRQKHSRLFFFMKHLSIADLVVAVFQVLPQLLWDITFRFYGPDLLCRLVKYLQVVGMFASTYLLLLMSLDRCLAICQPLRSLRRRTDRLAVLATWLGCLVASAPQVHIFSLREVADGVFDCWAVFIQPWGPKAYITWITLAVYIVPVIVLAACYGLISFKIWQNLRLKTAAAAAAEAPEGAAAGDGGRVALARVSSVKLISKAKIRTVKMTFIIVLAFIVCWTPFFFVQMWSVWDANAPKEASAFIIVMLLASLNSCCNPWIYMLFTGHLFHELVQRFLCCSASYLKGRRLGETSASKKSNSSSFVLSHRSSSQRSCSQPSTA

This is a selection; strong and weak results do not stand in their true shares. Calls of active or inactive are those of the source.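 Rule for the calls: active = activation above that plate's cutoff, the mean activation of tested compounds plus 3 SD (cut at about 6.6% in these data, passing the limit was not always enough); inactive = the rest.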

This experiment deals with Oxytocin receptor (Homo sapiens) (UniProt P30559). The experiment can be described thus: enhancers of oxytocin-evoked OXTR calcium signal – fluorescence, CHO-OTR cells, Fluo-8 calcium, primary screen (AID 2445).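 Note: 100% uses oxytocin at 75 nM as the full agonist control.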 Particulars: Fluo-8 calcium fluorescence, potentiator mode, at 3 µM, hits give high values, 0% = oxytocin EC15, 100% = EC100.
`CCC(=O)N(c1ccccc1)C1(COC)CCN(CCc2cccs2)CC1`: the activation is inactive: -4.41%.
In the case of `CCC(=O)N(c1ccccc1)C1(COC)CCN(CCn2nnn(CC)c2=O)CC1`, the activation was inactive: -3.53%.
